{
  "sequences": {"note": "By UniProt entry, the sequences of proteins in these tests, tags left out.", "UniProt P21729, whole entry": "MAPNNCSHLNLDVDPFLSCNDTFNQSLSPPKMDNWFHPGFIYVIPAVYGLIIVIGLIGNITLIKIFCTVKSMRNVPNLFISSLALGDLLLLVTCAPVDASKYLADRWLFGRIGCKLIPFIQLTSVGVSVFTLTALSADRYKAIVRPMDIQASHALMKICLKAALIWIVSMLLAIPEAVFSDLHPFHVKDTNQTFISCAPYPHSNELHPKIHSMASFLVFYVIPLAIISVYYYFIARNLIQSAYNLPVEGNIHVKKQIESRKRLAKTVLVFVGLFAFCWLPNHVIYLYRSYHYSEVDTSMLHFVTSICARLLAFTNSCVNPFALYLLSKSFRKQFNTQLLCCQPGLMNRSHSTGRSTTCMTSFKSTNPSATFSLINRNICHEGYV"},
  "source": "patent US5593656A",
  "about": "“Metal-binding targeted polypeptide constructs” (Cytogen Corporation, priority 1995, dated 1997)",
  "molecular_target": "I-125-GRP binding to NIH-3T3 cells (Mus musculus, UniProt P21729)",
  "experiment": "In vitro receptor binding assay: inhibition of binding of I-125-GRP to NIH-3T3 cells",
  "conditions": "0.45 pM I-125-GRP",
  "data": [
    {"smiles": "CSCC[C@H](NC(=O)[C@H](CC(C)C)NC(=O)[C@H](Cc1c[nH]cn1)NC(=O)CNC(=O)[C@@H](NC(=O)[C@H](C)NC(=O)[C@H](Cc1c[nH]c2ccccc12)NC(=O)[C@H](Cc1c[nH]cn1)NC(=O)[C@H](CC(N)=O)NC(=O)CNC(C)=O)C(C)C)C(=O)NNC(=S)Nc1cc(NC(=S)NNC(=O)[C@H](CCSC)NC(=O)[C@H](CC(C)C)NC(=O)[C@H](Cc2c[nH]cn2)NC(=O)CNC(=O)[C@@H](NC(=O)[C@H](C)NC(=O)[C@H](Cc2c[nH]c3ccccc23)NC(=O)[C@H](Cc2c[nH]cn2)NC(=O)[C@H](CC(N)=O)NC(=O)CNC(C)=O)C(C)C)cc(C(=O)O)c1", "values": [
      {"measurement": "% BOUND", "setting": "1 nm inhibitor", "value": 4.4, "unit": "%"},
      {"measurement": "% INHIBITION", "setting": "1 nm inhibitor", "value": 26, "unit": "%"},
      {"measurement": "AVG CPM BOUND", "setting": "1 nm inhibitor", "value": "2,993 CPM"},
      {"measurement": "% BOUND", "setting": "10 nm inhibitor", "value": 3.3, "unit": "%"},
      {"measurement": "% INHIBITION", "setting": "10 nm inhibitor", "value": 44, "unit": "%"},
      {"measurement": "AVG CPM BOUND", "setting": "10 nm inhibitor", "value": "2,163 CPM"},
      {"measurement": "% BOUND", "setting": "100 nm inhibitor", "value": 1.9, "unit": "%"},
      {"measurement": "% INHIBITION", "setting": "100 nm inhibitor", "value": 68, "unit": "%"},
      {"measurement": "AVG CPM BOUND", "setting": "100 nm inhibitor", "value": "1,264 CPM"}
    ]}
  ]
}
